# scFv variants of Ab-14 (heavy chain) against a SARS-CoV-2 spike peptide

Data: MIT Lincoln Laboratory AlphaSeq set, Li et al. 2023, doi:10.1038/s41467-023-39022-2, as distributed in FLAb.

Target: peptide PDVDLGDISGINAS, taken from heptad repeat 2 (HR2) of SARS-CoV-2 spike.

Parent: Ab-14, a human scFv built as VH, a (GGGGS)3 linker, VL. Only the CDRs of the heavy chain vary.
VH: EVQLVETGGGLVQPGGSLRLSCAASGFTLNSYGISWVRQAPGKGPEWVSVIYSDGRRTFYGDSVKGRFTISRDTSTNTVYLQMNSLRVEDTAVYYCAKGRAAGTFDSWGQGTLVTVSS
VL: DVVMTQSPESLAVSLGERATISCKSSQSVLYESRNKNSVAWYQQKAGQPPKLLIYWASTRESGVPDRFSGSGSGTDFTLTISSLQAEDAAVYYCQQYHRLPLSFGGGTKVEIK

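Phage display of a naive human antibody library on the peptide gave the parent. The variants were designed computationally from a first round of random CDR variants and then made and measured. Several design methods are mixed in this list. The assay is AlphaSeq: two haploid yeast populations carry antibody and antigen on their surface. The frequency of each diploid, read from paired DNA barcodes, reflects how well the two displayed proteins bind. Read counts were normalised to the haploid input and turned into Kd by a linear fit to BCL2-family pairs of known affinity, for each replicate. Each pool was mated in six replicate cultures.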

The parent's heavy chain CDRs are GFTLNSYGIS, VIYSDGRRTFYGDSVK, GRAAGTFDS; each variant's own CDRs replace them letter for letter. The Kd shown is the geometric mean over detected replicates; a lower Kd is a better binder. "not detected" means that the variant was in the library but no mating with the target was seen in any replicate; the authors take this as a sign of poor binding, and no number exists. Order: sorted from the lowest average up, undetected variants last. A sequence that the file lists under several names has all its replicates pooled.

| apparent Kd | seen in | empty controls | CDR-H1 | CDR-H2 | CDR-H3 |
|---|---|---|---|---|---|
| 92 pM | 6/6 | 0/18 | GFDLNEYGIS | VIYADGRRTFYADSVK | GTHAGTFDQ |
| 120 pM | 6/6 | 0/18 | GFDLDEYGIS | VIYADGKRTAYADSVK | GGNAGTFDV |
| 160 pM | 6/6 | 0/18 | GFNLDEYGIS | VIYADGRRTFYADSVK | GQVAGTFDI |
| 190 pM | 6/6 | 0/18 | GFDLNEYGIS | VIYADGSRTFYADSVK | GNVAGTFDM |
| 220 pM | 6/6 | 0/18 | GFNLEDYGIS | VIYADGRRTFYADSVK | GKVAGTFDS |
| 260 pM | 6/6 | 0/18 | GFDLNEYGIS | VIYADGQRTAYADSVK | GETAGTFDQ |
| 310 pM | 6/6 | 0/18 | GFDLNEYGIS | VIYADGKRTFYIDSVK | GEAAGTFDM |
| 330 pM | 6/6 | 0/18 | GFDLNEYGIS | VIYADGRRTAYADSVK | GEIAGTFDF |
| 330 pM | 6/6 | 0/18 | GFELNDYGIS | VIYSDGRRTFYSDSVK | GRTAGTFDS |
| 340 pM | 5/6 | 0/18 | GFDLNEYGIS | VIYADGRRTFYSDSVK | GEVAGTFDK |
| 370 pM | 6/6 | 0/18 | GFDLNEYGIS | VIYADGRRTAYTDSVK | GGNAGTFDS |
| 390 pM | 6/6 | 0/18 | GFDLNEYGIS | VIYADGVRQAYADSVK | GNTAGTFDV |
| 480 pM | 6/6 | 0/18 | GFDLNEYGIS | VIYADGRRTFYADSVK | GANGGTFDV |
| 560 pM | 6/6 | 0/18 | GFDLDEYGIS | VIYADGMRTAYIDSVK | GNQAGTFDL |
| 770 pM | 6/6 | 0/18 | GFDLNEYGIS | VIYADGRRTAYSDSVK | GEVAGTFVD |
| 810 pM | 6/6 | 0/18 | GFDLEEYGIS | VIYADGRRTAYIDSVK | GEAAGTFDV |
| 980 pM | 6/6 | 0/18 | GFDLNEYGIS | VIYADGRRTFYADSVK | GNAAGTFDN |
| 1.0 nM | 6/6 | 0/18 | GFDLNEYGIS | VIYADGRRTFYTDSVK | GEQAGTFDQ |
| 1.2 nM | 6/6 | 1/18 | GFDLKSYGIS | VIYSDGRRTFYGDSVK | GRTAGTFDS |
| 1.2 nM | 6/6 | 0/18 | GFDLMEYGIS | VIYADGMRQYYANKFK | GGISDSGLI |
| 1.3 nM | 6/6 | 1/18 | GFDLDEYGIS | VIYADGMRTAYADTVK | GNVAGTFDV |
| 1.8 nM | 3/6 | 1/18 | GFTLNSYGIS | VMYSDGRRTFYGDSVK | GRIAGTFDS |
| 2.9 nM | 12/12 | 1/36 | GFDLNSYGIS | VIYSDGRRTFYADSVK | GRAAGTFDS |
| 3.5 nM | 6/6 | 0/18 | GFSLNSYGIS | VIYSDGRRTFYVDSVK | GNAAGTFDQ |
| 5.1 nM | 6/6 | 0/18 | GFQLNSYGIS | VIYSDGRRTFYIDSVK | GNAAGTFDS |
| 5.2 nM | 4/6 | 0/18 | GFNLNSYGIS | VIYSDGRRTAYHDSVK | GRAAGTFDS |
| 5.2 nM | 6/6 | 1/18 | GFELNSYGIS | VIYSDGRRTFYGDNVK | GMNAGTFDS |
| 7.6 nM | 1/6 | 0/18 | KFTLNEYGIS | VIYSDGRRTFYTDSVK | GRHAGTFDS |
| 9.7 nM | 6/6 | 0/18 | GFDLNSYGIS | VIYSDGRRTFYGDSVK | GWTAGTFDD |
| 11 nM | 6/6 | 0/18 | GFSLNAYGIS | VIYSDGRRTYYGDSVK | GRTAGTFDS |
| 15 nM | 6/6 | 0/18 | GFYLNEYGIS | VIYSDGRRTFYTDSVK | GRFAGTFDS |
| 22 nM | 1/6 | 0/18 | GFDIDEYGIS | VIYADGRRTFYADSVK | GTNAGTFDQ |
| 48 nM | 4/6 | 0/18 | GFTLGQYGIS | VIYSDGRRTQYGDSVK | GRAAGTFDS |
| 58 nM | 6/6 | 0/18 | HFDLNSYGIS | VIYSDGRRTFYGDSVK | GRQAGTFDS |
| 78 nM | 1/6 | 0/18 | GFTLNSYGIS | VIYSDGMHTFYGDSVK | GRVAGTWDS |
| 87 nM | 1/6 | 0/18 | GTTLNDYGIS | VIYSDGMRTEYYDSVK | GRAAGTFDS |
| 93 nM | 2/6 | 1/18 | GFTLSSYGIS | VIYSDGRRTFYGDSVK | GKAEGTFDS |
| 170 nM | 1/6 | 0/18 | GFTLNSYGIS | VIYADGRRTFYGDSVK | GRAAGLFDS |
| 320 nM | 1/6 | 1/18 | GFDLDEYGVS | VIYADGRRKKYADSVK | GTHGGTILA |
| 2.7 µM | 1/6 | 0/18 | GFTLNSYGIS | VIYSDGRRTMYGDSVK | GTWAGTFDS |
| not detected | 0/6 | 0/18 | DFTLNSYGIS | VIYSDGRRTFYGDSVK | VRAAGTFDT |
| not detected | 0/6 | 0/18 | GFNLNSYGIS | VIYSDGRRTFYGDSVD | GRAAGTTDS |
| not detected | 0/6 | 1/18 | GFDLNEYGIS | VIYADGRRTFYADSVK | GNNAGTILV |
| not detected | 0/6 | 0/18 | GKSLDEMGIS | VIYADGHRKMYANDVK | GHVGAIFMM |
| not detected | 0/6 | 0/18 | GADLNEYGIS | VIYADGQRTVYADTVK | GHHGGIFDS |
| not detected | 0/6 | 0/18 | YFTLNSYGIS | VIYSDGRRTFYDDSVK | GQLAGTFDS |
| not detected | 0/6 | 0/18 | GFTLNECGIS | VIYLDNRRTFYTDSVK | GRFAGTFKS |
| not detected | 0/6 | 0/18 | GFTLNDYGIS | VIYSDGRRTFYKDSVK | GRTAGTFIS |
| not detected | 0/6 | 1/18 | GFTLLKYGIS | VIYSDGRRTFYGDSVK | GRAAGTWDS |
| not detected | 0/6 | 0/18 | GFLLDEYGIS | VIYADGQRTAYTDDVK | GQYGGIGTI |
| not detected | 0/6 | 0/18 | GFDLNEYGIS | VIYADGKRTAYLQNVK | GENAGFDQY |
| not detected | 0/6 | 0/18 | GFTLNSYGIS | VIYSDMRRTLYDDSVK | GDLAGTFDH |
| not detected | 0/6 | 0/18 | GFTLNEYGIS | VIYSDGRRTFYGDSWK | GRAAVTFDQ |
| not detected | 0/6 | 0/18 | GFTLNKYGIS | VIYADGRRTFYGDSVK | GTWAGTFDS |
| not detected | 0/6 | 0/18 | GFSLNSYGIS | VIYSDGRRTFYGDSVK | RKAMGQFDS |
| not detected | 0/6 | 0/18 | GFDLNQYGIS | VIYSDGRRTFYGDSVK | GRGAGTFSS |
| not detected | 0/6 | 0/18 | GMDLEEYGIS | VIYADGVRARYANDVK | GQVDAILVV |
| not detected | 0/6 | 0/18 | GFDLEEWGIS | VIYADGKRTAYADNVK | GMSGADLMF |
| not detected | 0/6 | 0/18 | GFDLNEYGIS | VIYADGRRTFYADNVK | GENAGTFIV |
| not detected | 0/6 | 0/18 | GFTLNSYSIN | VIYSDGRRTFYLNSVK | GRIAGTFDS |
| not detected | 0/6 | 0/18 | GFDLDEYGIS | VIYADGKRTAYADDVK | GNQAGTFDV |
| not detected | 0/6 | 0/18 | GFDINEYGIS | VIYADGMRTKYSESVK | GTVDESFNG |
| not detected | 0/6 | 0/18 | GFDVDEYGIS | VIYADGSRVAILESVK | GKIAGTFFV |
| not detected | 0/6 | 0/18 | GFCLNSYGIS | VIYSDGRRTMYIDSVK | GRAAGTFDS |
| not detected | 0/6 | 0/18 | GFTLNSYGIS | VIYSDGMRTFYRDSVK | GRLAGTFDS |
| not detected | 0/6 | 0/18 | GFTLNQYGNS | VIYSDGRRTFYSDSVK | GRAAGFFDC |

A selection of 8 entries from above:

| CDR-H1 | CDR-H2 | CDR-H3 | apparent Kd | seen in | empty controls |
|---|---|---|---|---|---|
| GFDINEYGIS | VIYADGMRTKYSESVK | GTVDESFNG | not detected | 0/6 | 0/18 |
| YFTLNSYGIS | VIYSDGRRTFYDDSVK | GQLAGTFDS | not detected | 0/6 | 0/18 |
| GFQLNSYGIS | VIYSDGRRTFYIDSVK | GNAAGTFDS | 5.1 nM | 6/6 | 0/18 |
| GFDLNEYGIS | VIYADGRRTAYADSVK | GEIAGTFDF | 330 pM | 6/6 | 0/18 |
| GFTLNSYGIS | VIYSDGMHTFYGDSVK | GRVAGTWDS | 78 nM | 1/6 | 0/18 |
| GFTLNDYGIS | VIYSDGRRTFYKDSVK | GRTAGTFIS | not detected | 0/6 | 0/18 |
| GFDLEEYGIS | VIYADGRRTAYIDSVK | GEAAGTFDV | 810 pM | 6/6 | 0/18 |
| GFDLNEYGIS | VIYADGVRQAYADSVK | GNTAGTFDV | 390 pM | 6/6 | 0/18 |

The authors' rule: three or more of the six replicates give a measured affinity, fewer mean a poor binder. The range of this assay differs from that of the first round, and the authors advise against merging the two. Background: pairings of all heavy chain designs with three empty control strains gave a value in 1% of cases (median 120 nM, 5th percentile 7.0 nM). Values in that range, when seen in few replicates, are hard to tell from nonspecific mating. For each scFv, signals with the empty controls are counted beside the result.